By IC50 is commonly meant the concentration that gives 50% inhibition. Lower therefore signals greater potency.

Chains of the proteins cited; added tags and fusions are not shown.
UniProt P34947, whole entry, species assumed: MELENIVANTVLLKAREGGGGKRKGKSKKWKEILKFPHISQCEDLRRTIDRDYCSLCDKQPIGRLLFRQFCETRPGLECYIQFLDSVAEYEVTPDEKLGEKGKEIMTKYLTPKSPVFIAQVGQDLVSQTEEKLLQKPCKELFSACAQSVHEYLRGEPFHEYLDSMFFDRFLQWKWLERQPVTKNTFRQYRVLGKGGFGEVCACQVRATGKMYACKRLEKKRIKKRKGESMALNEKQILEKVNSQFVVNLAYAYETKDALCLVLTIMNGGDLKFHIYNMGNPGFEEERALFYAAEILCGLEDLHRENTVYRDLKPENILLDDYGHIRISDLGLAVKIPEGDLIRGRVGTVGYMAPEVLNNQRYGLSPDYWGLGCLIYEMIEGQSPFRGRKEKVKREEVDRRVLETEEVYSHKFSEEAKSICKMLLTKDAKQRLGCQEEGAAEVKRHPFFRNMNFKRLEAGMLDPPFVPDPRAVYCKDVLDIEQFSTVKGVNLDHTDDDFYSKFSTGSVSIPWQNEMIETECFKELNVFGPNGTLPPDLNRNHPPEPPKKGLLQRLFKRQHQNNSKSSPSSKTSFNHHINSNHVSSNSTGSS

Our source for the IC50 values is patent US10329283B2, “G protein-coupled receptor kinase inhibitors and methods for use of the same” (THE REGENTS OF THE UNIVERSITY OF MICHIGAN, priority 2015, dated 2019).

This assay has as its target GRK5 (Homo sapiens, UniProt P34947). Kind of assay: GRK5 kinetic assay for inhibition of GRKs (phosphorimaging). Conditions: 50 nM GRK, 5 μM ATP, 500 nM bROS or tubulin, 5 min. The format is biochemical. As to the method: The low salt concentration and DDM were used to maximize GRK activity and disrupt small molecule aggregates from forming, respectively. […] Data was analyzed and inhibition curves were fit via GraphPad Prism.

`Fc1ccc([C@@H]2CCNC[C@H]2COc2ccc3c(c2)OCO3)cc1` [Paroxetine, reference compound]: the IC50 is more than 100 µM.
